Experimental data reported in article PMC3422351, “Lipo-Endomorphin-1 Derivatives with Systemic Activity against Neuropathic Pain without Producing Constipation” (PLoS ONE, 2012).

Columns and labels:
CCI-rats = assay: Assessment of antinociceptive tolerance in CCI-rats; type: in vivo, rat; settings: 2 µmol/kg i.v. twice-daily, 5 consecutive doses
From the text: At 14 days after CCI surgery, rats (350–400 g) were randomly assigned to one of four treatment groups and administered twice-daily i.v. bolus doses of one test item or vehicle for 5 consecutive doses. Group 1 CCI-rats received compound 3 at 1.6 µmol/kg for all 5 doses whereas group 2 CCI-rats (negative control) received compound 3 at 1.6 µmol/kg followed by vehicle for doses 2–4 with the 5th dose comprising compound 3 at 1.6 µmol/kg. Groups 3 and 4 CCI-rats received 5 consecutive doses of vehicle or morphine (2 µmol/kg), respectively. Paw withdrawal thresholds were measured immediately pre-dose and at the following post-dosing times, viz 0.25, 0.5, 0.75, 1, 1.25, 1.5, 2, and 3 h for doses 1 and 5.

opioid receptors = assay: Naloxone-sensitivity of antinociception/anti-allodynia in CCI-rats; type: in vivo, rat; settings: 2 µmol/kg i.v., naloxone hydrochloride 10 mg/kg s.c.

CN1CC[C@]23c4c5ccc(O)c4O[C@H]2[C@@H](O)C=C[C@H]3[C@H]1C5 [morphine]
potency after the 5th dose relative to the 1st dose (CCI-rats): 24%
anti-allodynic effect after naloxone hydrochloride pre-treatment (opioid receptors): abolished
